For data set [1], the target named is Cannabinoid receptor 1 (Homo sapiens, UniProt P21554). The data set is described as follows: Agonist activity at human CB1 receptor CP55940-stimulated calcium mobilization at 10 uM incubated for 15 mins FLIPR assay relative to control. In kind it is functional. Summed up:
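Agonist screen in CHO-RD-HGA16 cells stably expressing hCB1, loaded with Calcium 5 dye for 45 min at 37 °C and pretreated with buffer vehicle. Test compound is added at a single 10 μM concentration by FLIPR Tetra. Fluorescence is read every 1 s for 90 s (ex/em 485/525 nm). RFU are expressed as % of CP55,940 Emax.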
In general terms: Calcium flux is commonly read through the fluorescence of an indicator in the cells.

Sequences of proteins named here, by UniProt entry; tags and fusion partners are left off.
UniProt P21554, whole entry: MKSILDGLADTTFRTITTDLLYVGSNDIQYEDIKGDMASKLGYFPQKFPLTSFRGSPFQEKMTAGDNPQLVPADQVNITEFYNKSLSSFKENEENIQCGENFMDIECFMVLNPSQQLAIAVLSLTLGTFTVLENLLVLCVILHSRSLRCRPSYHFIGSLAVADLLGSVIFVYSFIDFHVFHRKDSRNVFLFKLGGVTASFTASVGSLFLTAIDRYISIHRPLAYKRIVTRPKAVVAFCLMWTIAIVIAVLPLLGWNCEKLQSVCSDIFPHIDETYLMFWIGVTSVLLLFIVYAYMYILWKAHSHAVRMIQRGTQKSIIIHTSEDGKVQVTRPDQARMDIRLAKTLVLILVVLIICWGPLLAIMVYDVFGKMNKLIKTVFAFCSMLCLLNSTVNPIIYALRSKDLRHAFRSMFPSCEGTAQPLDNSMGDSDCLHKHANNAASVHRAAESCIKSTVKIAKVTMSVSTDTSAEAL

For data set [2] the following is noted: rat, microsomes, 0.75 h.

The structures appear in SMILES notation. Bounds are passed on as bounds.

Results on one molecule are retold here after ChEMBL document CHEMBL5042498, “Development of 3-(4-Chlorophenyl)-1-(phenethyl)urea Analogues as Allosteric Modulators of the Cannabinoid Type-1 Receptor: RTICBM-189 is Brain Penetrant and Attenuates Reinstatement of Cocaine-Seeking Behavior” (J Med Chem, 2022).

In general, Emax refers to the greatest response seen or fitted, relative to the assay's reference.

In the case of `O=C(NCCc1cccc(Cl)c1)Nc1ccc(Cl)cc1`, the Emax in data set [1] is less than 30%. In data set [2], this molecule registered a QH of 70.6%.
